# Apparent affinities of Ab-95 variants for a coronavirus HR2 peptide

The target is the same throughout: PDVDLGDISGINAS, from the HR2 region of SARS-CoV-2 spike.

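Library AAYL52 holds single substitutions and randomly drawn double and triple substitutions in the CDRs. AlphaSeq pools MATa yeast showing the antibodies with MATalpha yeast showing the peptide. Binding brings cells together so that they mate, and sequencing counts the barcode pairs among the diploids. The ratio of observed to expected reads was calibrated, replicate by replicate, on BCL2-family standards whose Kd was known from biolayer interferometry. There are three technical replicates.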

Each scFv is VH, the linker GGGGSGGGGSGGGGS, VL, as in the parent Ab-95, and differs from it in the CDRs of the light chain only.
VH: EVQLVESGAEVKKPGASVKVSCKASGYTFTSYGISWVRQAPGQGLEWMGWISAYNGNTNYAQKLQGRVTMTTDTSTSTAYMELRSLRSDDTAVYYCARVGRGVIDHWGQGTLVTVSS
VL: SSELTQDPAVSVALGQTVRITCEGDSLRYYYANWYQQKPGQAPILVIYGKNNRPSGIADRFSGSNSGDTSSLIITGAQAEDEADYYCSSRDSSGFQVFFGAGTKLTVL

Each variant is given by its three light chain CDRs, as the data file delimits them; those of the parent are EGDSLRYYYAN, GKNNRPS, SSRDSSGFQVF.
Kd is apparent (estimated from mating counts) and averaged on the log scale over replicates with a signal. Smaller is tighter.
A pair that was not seen in any replicate is written "no signal"; this usually means weak binding, but a binder can also be missed.
Parent in this assay: reference entry 200 nM, copy in this library 180 nM.
As a blank, each scFv also met three strains without target: over library AAYL52, 28% of these pairings were detected, typically at 8.2 µM and seldom below 800 nM.

| CDR-L1 | CDR-L2 | CDR-L3 | Kd (apparent) | detected |
|---|---|---|---|---|
| EGDSLRYYYAN | GKNNRPS | SSRASKWFQVF | 6.9 µM | 1 of 3 |
| EGDSWRYYYAN | GKNNRPS | SSTDSSGFQHF | 540 nM | 1 of 3 |
| EGDSLGYYYAN | GANNTPS | SSRDSSGFQVF | 190 nM | 3 of 3 |
| EGDSLRYYDAP | GKNNRPS | SSRISSGFQVF | no signal | 0 of 3 |
| EGDSYRYYYNN | GKNNRPS | SSRHSSGFQVF | 25 µM | 2 of 3 |
| EGDSLRYYYAN | GKNNRPS | SFRRSSGFQVF | 450 nM | 3 of 3 |
| EGDSLRFYHAN | GKNNRPS | SSRDSNGFQVF | 270 nM | 3 of 3 |
| EGDSLRYYYAN | GKNARPS | SNRLSSGFQVF | 4.2 µM | 3 of 3 |
| EGDSLRYYYQN | GKNNHPS | SSRDSSGFQVF | 2.4 µM | 1 of 3 |
| EGDSLRYYYAN | GKNNRDG | SSRDSSGFQVF | 970 nM | 3 of 3 |
| EGDSLRYYYSN | GKNNRPS | SLRDSLGFQVF | 48 µM | 2 of 3 |
| SGQSLRYYYAN | GKNNRPS | SSRDSSGFQGF | 160 nM | 3 of 3 |
| EGHSLRYYNAN | GKNNRPS | SSRDSSGLQVF | 260 nM | 3 of 3 |
| EGDSLRYYHAN | GKNNRPS | SSRDSSGFIVF | 140 nM | 3 of 3 |
| EGDSLRYYYAN | GKNNRPS | KSADSSGFQVA | no signal | 0 of 3 |
| EGDSLRYYYAY | GKNNRPS | SSRWSSGFQYF | 15 µM | 1 of 3 |
| EGDSLRYYYAN | GKNERPS | SSRYSSGFAVF | 1.4 µM | 3 of 3 |
| EGDSLRYYYEN | GKNNRPP | SSRDSIGFQVF | 3.6 µM | 1 of 3 |
| EGDSLRYYYAN | MCNNGPS | SSRDSSGFQVF | 4.8 µM | 2 of 3 |
| EGDSLRYYYAN | GKNQSPS | SSRDSSGFIVF | 420 nM | 3 of 3 |
| EGDSLRNYYTN | GKNNRPA | SSRDSSGFQVF | 35 nM | 3 of 3 |
| EGDSIRYYYAN | GKNDNPS | SSRDSSGFQVF | 560 µM | 1 of 3 |
| EGDSPRYYGAN | GKNIRPS | SSRDSSGFQVF | 540 nM | 3 of 3 |
| GGDSLRYYAAM | GKNNRPS | SSRDSSGFQVF | 860 nM | 3 of 3 |
| EGDSLMYYYAN | GKNNRPS | SSRTSSCFQVF | 750 nM | 1 of 3 |
| EGDSLRYYYAN | GQNNRNS | SSRKSSGFQVF | 1.9 µM | 1 of 3 |
| EGDSLRLTYAN | GKNNRPG | SSRDSSGFQVF | 140 nM | 3 of 3 |
| EGDSLRMYYAN | GKNNFPS | HSRDSSGFQVF | 11 µM | 1 of 3 |
| EGDSLRYYYAN | GENNRPS | RSRDSSGFYVF | no signal | 0 of 3 |
| EGDSLRYYYAN | PKLNYPS | SSRDSSGFQVF | 56 µM | 1 of 3 |
| EHDSLRYYYAN | GKNNRPS | SPRDSKGFQVF | 4.5 µM | 2 of 3 |
| EGDSLRNCYAN | GKNNRPS | SSRDSSGDQVF | 81 nM | 3 of 3 |
| EGDSLRYYYAN | GKNTRPS | QRRDSSGFQVF | 440 nM | 3 of 3 |

Continued, with the values leading:

| Kd (apparent) | detected | CDR-L1 | CDR-L2 | CDR-L3 |
|---|---|---|---|---|
| 61 nM | 3 of 3 | EGDSVRYSYAN | GKNNRVS | SSRDSSGFQVF |
| 550 nM | 3 of 3 | EGDSLRYHYAN | GILNRPS | SSRDSSGFQVF |
| 170 µM | 2 of 3 | EGDSLRYYYQN | GKNYRPS | SSRDSSGFWVF |
| 9.2 µM | 1 of 3 | EGDSLRYYYAE | GKNNQPS | SSRVSSGFQVF |
| no signal | 0 of 3 | EGDSLRYYYAN | VKNNRAS | SSRDSSGFAVF |
| 1.0 µM | 3 of 3 | EGDSLNYYYAN | GKNNRPS | SQRDTSGFQVF |
| 28 µM | 1 of 3 | EGDSARYYYAN | GKDNRPS | SSRDSSGIQVF |
| 11 µM | 3 of 3 | EGDSLRYYIAN | GVNNRPS | SSRDSSGKQVF |
| no signal | 0 of 3 | EGDSLAYYYAN | GKNNRPS | SSRRSSDFQVF |
| 9.5 µM | 3 of 3 | EGDPLRYYYAN | GKNNRPW | SSRDSSGGQVF |
| no signal | 0 of 3 | EGDSLRYYYAN | CKNNRPS | SSRDSSGFQVS |
| no signal | 0 of 3 | EGDSLRYYYAN | GWNNRPS | SSRDSSGRCVF |
| 14 µM | 2 of 3 | EDDSLRYYYAN | KKNNRIS | SSRDSSGFQVF |
| 4.1 µM | 2 of 3 | WGDILRYYYAN | GKNNRPS | SSRDSSGFQWF |
| 5.0 µM | 2 of 3 | EGFSLRYYYAP | GKNNRPS | SSRDSDGFQVF |
| no signal | 0 of 3 | EGDSLRYYYCN | GKNNRPS | SSRDSQGFQEF |
| 2.8 µM | 3 of 3 | EEDMLRYYYAN | GKNNRPS | SGRDSSGFQVF |
| 2.9 µM | 2 of 3 | EGDSLRYYYAN | KKNNRPS | SSRDSSGFWVF |
| no signal | 0 of 3 | EGDSLRYYLSN | GKHNRPS | SSRDSSGFQVF |
| 11 µM | 2 of 3 | EGDSLRLYYAN | GKNNRPS | SSWDSSGFQVF |
| 9.1 µM | 1 of 3 | EGVSLRYYYAV | GKNNRPS | SSRNSSGFQVF |
| 5.5 µM | 1 of 3 | CGWSLRYYYAN | GKNNRPS | SSRSSSGFQVF |
| 12 µM | 3 of 3 | EGDSLRYYRAY | GKNNRPS | SSRDSLGFQVF |
| no signal | 0 of 3 | EGDGLRYYYAN | GKNWRPS | SSIDSSGFQVF |
| 58 nM | 3 of 3 | EGDSLRYTYAN | GKNNRPS | SSRDLSGFPVF |
| no signal | 0 of 3 | EGDSERYYYAN | GKNNIPS | SSRDSWGFQVF |
| 450 nM | 3 of 3 | EGDSLRYYYAN | GKNNRPS | RSWDCSGFQVF |
| no signal | 0 of 3 | EGDSPRYYYAN | GKNNLAS | SSRDSSGFQVF |
| no signal | 0 of 3 | EGDSPRYYYAN | GKNNRPS | SHHDSSGFQVF |
| 22 µM | 2 of 3 | EGDSRRYYYAN | GKNNRPS | ISRDSSGFQVF |
| 5.2 µM | 3 of 3 | EGDYLRYYYAN | AKNNRPS | SARDSSGFQVF |
| 6.6 µM | 2 of 3 | EGDMLRYYYAN | CKNNEPS | SSRDSSGFQVF |
| 60 µM | 2 of 3 | EGDSLRDYYAN | GKLNGPS | SSRDSSGFQVF |

Data: MIT Lincoln Laboratory AlphaSeq set, Engelhart et al. 2022, doi:10.1038/s41597-022-01779-4, as distributed in FLAb.